Where “and” joins values, the source holds several entries; their conditions need not be identical. Identical values can stand only once. The list shows a part of the results, in another mix than the full data. A structure can be active in one record and inactive in another. Calls of active or inactive are those of the source. The call rests on the fitted dose curve.
target: Acetylcholinesterase (Homo sapiens) (UniProt P22303); assay: Acetylcholinesterase (AChE) small molecule antagonists: enzyme-based qHTS assay (AID 1347397); conditions: at 115 µM (top of the series) unless noted; further: nearly all actives have a fitted effect of over 55% in size
Excerpt: National Center for Advancing Translational Sciences [NCATS]
Division of Preclinical Innovation [DPI]
U.S. Environmental Protection Agency [EPA]
National Institutes of Environmental Health Sciences [NIEHS]
National Toxicology Program [NTP]
U.S. Food and Drug Administration [FDA]
Acetylcholinesterase (AChE) is the primary cholinesterase in the body that hydrolyzes a key neurotransmitter, acetylcholine. Inhibition of AChE activity can lead to neurotoxicity. The known inhibitors include organophosphorous pesticides (OP), chemical warfare agents, drugs, and various phytochemicals.
An enzyme-based assay with the recombinant human AChE and Amplite Colormetric acetylcholinesterase assay kit (AAT Bioquest, Sunnyvale, CA) was used to evaluate the chemicals in the Tox21 10K library that inhibit AChE activity. The assay uses 5, 5-dithiobis-(2-nitrobenzoic acid) (DTNB) to quantify the thiocholine produced from the hydrolysis of acetylthiocholine by AChE.
Tox21 Assay Protocol Summary:
For the enzyme-based AChE assay, recombinant human AChE (50 mU/mL) in 4 uL/well was dispensed into black, clear-bottom 1536-well plates using a Multidrop Combi dispenser (Thermo Scientific, MA). Then, 23 nL of compound or DMSO (vehicle control) was transferred into the assay plates by a Pintool Station (Wako Automation, CA). The plates were incubated for 30 min at room temperature, followed by the addition of 4 uL of colorimetric detection cocktail solution (DTNB, acetylthiocholine) into each well using a Flying Reagent Dispenser (Beckman Coulter, CA) and then 10 min incubation at room temperature.
On the % scale 0 is the no-effect control and ±100 the full control effect.

The chains behind the UniProt entries cited, without tags or fusion partners. Where a name states a change or a piece, a line headed by the entry shows the natural chain unless it says otherwise.
UniProt P22303: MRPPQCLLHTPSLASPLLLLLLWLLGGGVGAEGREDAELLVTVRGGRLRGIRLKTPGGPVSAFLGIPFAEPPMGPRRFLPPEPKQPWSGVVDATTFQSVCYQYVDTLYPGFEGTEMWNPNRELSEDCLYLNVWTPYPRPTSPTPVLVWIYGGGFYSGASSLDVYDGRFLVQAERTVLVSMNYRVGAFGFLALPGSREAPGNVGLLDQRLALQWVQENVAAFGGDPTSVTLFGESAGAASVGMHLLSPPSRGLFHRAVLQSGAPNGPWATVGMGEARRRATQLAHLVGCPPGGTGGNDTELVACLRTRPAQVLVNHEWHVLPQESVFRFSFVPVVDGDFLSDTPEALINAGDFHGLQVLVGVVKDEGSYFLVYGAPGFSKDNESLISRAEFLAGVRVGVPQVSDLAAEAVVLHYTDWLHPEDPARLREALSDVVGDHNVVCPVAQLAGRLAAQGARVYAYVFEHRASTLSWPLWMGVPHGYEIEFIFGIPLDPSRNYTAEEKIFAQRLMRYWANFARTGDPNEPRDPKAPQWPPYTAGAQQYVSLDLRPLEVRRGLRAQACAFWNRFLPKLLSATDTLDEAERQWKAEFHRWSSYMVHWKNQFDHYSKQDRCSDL

Compound	activity change, negative = inhibition
CCCCC(CC)CO[P+](=O)OCC(CC)CCCC (centres undefined)	inactive: -0.0611%
CN(C(=O)Cc1ccc(Cl)c(Cl)c1)[C@H]1CC[C@@]2(CCCO2)C[C@@H]1N1CCCC1	inactive: 0.415% [at 53 µM]
CCNC(C)Cc1ccc2c(c1)OCO2 (centres undefined)	inactive: 4.18%
O=P(Cl)(Cl)c1ccccc1	inactive: -1.29%
O=[As]c1ccccc1 (centres undefined)	inactive: -1.73%
COC(=O)Cl	inactive: 2.04%
O=[p+]1oc2ccccc2c2ccccc21 (centres undefined)	inactive: 0.129%
O=P(Cl)(Oc1ccccc1)Oc1ccccc1	inactive: 2.72%
Cc1cc([N+](=O)[O-])c(O)c([N+](=O)[O-])c1	inactive: 10.9%
CN(C(=O)Cc1cccc2occc12)[C@H]1CC[C@@]2(CCCO2)C[C@@H]1N1CCCC1	inactive: -0.132%
ClP(Cl)c1ccccc1	inactive: -3.3%
CCCCO[P+](=O)OCCCC	inactive: -0.277% and inactive: 1.49%
O=[P+](Oc1ccccc1)Oc1ccccc1	inactive: 1.71%
COP(=S)(Cl)OC	inactive: 1.21%
CCOC(=O)Cl	inactive: 2.86%
CCCCOP(OCCCC)OCCCC	inactive: -3.92%
O=[N+]([O-])c1ccc([N+](=O)[O-])cc1	inactive: 0.132%
CCOP(=S)(CC)Sc1ccccc1 (centres undefined)	inactive: 2.18%
O=C(Cl)Oc1ccccc1	inactive: 1.22%
CCCCCCCCCCCCCC[P+](CCCCCC)(CCCCCC)CCCCCC	inactive: -10.5%
Cc1cc([N+](=O)[O-])cc([N+](=O)[O-])c1O	inactive: 36.5% and inactive: 36.8%
CC(C)CCCCCCCOP(OCCCCCCCC(C)C)Oc1ccccc1	inactive: 1.31%
CCC(C)(OOC(C)(C)C)OOC(C)(C)C	inactive: 0.157% [at 23.6 µM]
CN(C(=O)Cc1ccccc1)[C@H]1CC[C@@]2(CCCO2)C[C@@H]1N1CCCC1	inactive: -1.76% [at 53 µM]

Source: PubChem BioAssay (Tox21)
